How the values were obtained:
[1] = system: ERα(−) MDA-MB-231 breast cancer cells; assay: Cell viability assay (MTT or XTT) in ERα(−) MDA-MB-231 breast cancer cells; type: cell-based, human; conditions: MDA-MB-231, highest concentrations and incubation times used
Experimental: Cell culture and nanoparticle incubation. ERα(−) MDA-MB-231 and ERα(+) MCF-7 breast cancer cells (human adenocarcinoma, ATCC) or ERα(+) human squamous cell carcinoma (43-45) (HSC-3) cells were cultured to 10^5 cells/cm^2 in DMEM growth media supplanted with 10% v/v heat-inactivated fetal bovine serum, penicillin (100 U/ml), streptomycin (100 μg/ml), 4.5 g/L glucose, […], without L-glutamine and phenol red at 37° C. in a 5% CO2 humidified atmosphere. Growth media was removed from the cell cultures and replaced with identical media containing gold nanoparticle conjugates heated to 37° C. at time=0 h.
Cell viability assay. Following incubation, growth media containing gold nanoparticle conjugates was removed and cells were rinsed twice in sterile Dulbecco's phosphate buffered saline (DPBS). Mitochondrial dehydrogenase activity was assessed by MTT or XTT spectrophotometric assay (Sigma TOX1, TOX2) following the manufacturer's instructions. The assay was performed using a SpectraMax Plus 384 microplate reader and statistical analysis was performed by t-test.

[2] = system: MCF-7 cells; assay: In vitro laser photothermal therapy of MCF-7 cells; conditions: MCF-7, 0.5 μM, 24 h

Q: Which results are given for Thiol-pegylated tamoxifen [TAM-PEG-SH]?
A: cytotoxic effects [1]: cytotoxic effects were not observed; in vitro cytotoxicity in the absence of laser treatment [2]: no appreciable in vitro cytotoxicity

Reference: US20110077581A1, “TARGETED CELLULAR DELIVERY OF NANOPARTICLES” (GEORGIA TECH RESEARCH CORPORATION, priority 2009, published 2011)
